{
  "sequences": {"note": "Protein sequences, listed by entry. Tags and fused reporters are not part of them. Lines headed by an entry give the natural chain unless they say otherwise; changes in a name come on top.", "UniProt P48561": "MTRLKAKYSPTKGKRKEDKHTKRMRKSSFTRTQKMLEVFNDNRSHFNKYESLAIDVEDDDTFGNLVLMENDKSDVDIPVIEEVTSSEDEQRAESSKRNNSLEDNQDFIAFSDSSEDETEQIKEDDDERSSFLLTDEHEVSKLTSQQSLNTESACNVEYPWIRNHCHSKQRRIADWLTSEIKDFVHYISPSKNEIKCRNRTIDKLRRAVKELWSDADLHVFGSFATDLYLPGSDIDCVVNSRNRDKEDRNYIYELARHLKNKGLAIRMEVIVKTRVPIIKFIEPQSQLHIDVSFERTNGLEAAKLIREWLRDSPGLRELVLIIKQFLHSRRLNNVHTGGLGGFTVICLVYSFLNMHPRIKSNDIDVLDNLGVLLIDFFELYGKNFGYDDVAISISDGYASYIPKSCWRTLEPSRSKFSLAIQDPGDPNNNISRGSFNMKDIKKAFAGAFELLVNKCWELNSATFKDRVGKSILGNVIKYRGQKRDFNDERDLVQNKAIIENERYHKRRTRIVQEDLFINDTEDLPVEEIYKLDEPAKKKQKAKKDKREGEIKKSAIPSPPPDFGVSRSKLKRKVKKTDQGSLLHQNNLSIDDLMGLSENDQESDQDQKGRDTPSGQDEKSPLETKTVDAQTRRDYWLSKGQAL"},
  "source": "paper PMC4330371",
  "about": "“Interaction between the RNA-dependent ATPase and poly(A) polymerase subunits of the TRAMP complex is mediated by short peptides and important for snoRNA processing” (Nucleic Acids Research, 2015)",
  "molecules": {"B1": {"name": "Trf5 peptide comprising residues 98–124 with an N-terminal fluorescein label (peptide, UniProt P48561 98-124, looked up)", "peptide": "NNSLEDNQDFIAFSDSSEDETEQIKED", "modifications": "fluorescein on the N-terminus", "notes": "Trf5, S. cerevisiae, residues 98-124; the methods give 98-124; also called fluorescein-labeled Trf5 peptide; fluorescently labeled Trf5 peptide; source: synthetic peptide, purchased through the Keck lab at Yale University"}, "B2": {"name": "Air2 peptide comprising residues 1–29 with an N-terminal fluorescein label (peptide, UniProt Q12476 1-29, looked up)", "peptide": "MEKNTAPFVVDTAPTTPPDKLVAPSIEEV", "modifications": "fluorescein on the N-terminus", "notes": "also called Air2^1–29 peptide; Air2 residues 1–29; source: peptide obtained from Dr. Joshua Price at Brigham Young University"}, "B3": {"name": "complex of recombinant Trf4 and Air2: complex of recombinant Trf4 and Air2 that contained either one of the peptide motifs (Falk et al.) (protein, UniProt P53632 1-584; Q12476 1-344, looked up)", "Poly(A) RNA polymerase …": "MGAKSVTASSSKKIKNRHNGKVKKSKKIKKVRKPQKSISLNDENEVEILPSRNEQETNKLPKDHVTADGILVLEHKSDDDEGFDVYDGHFDNPTDIPSTTEESKTPSLAVHGDEKDLANNDDFISLSASSEDEQAEQEEEREKQELEIKKEKQKEILNTDYPWILNHDHSKQKEISDWLTFEIKDFVAYISPSREEIEIRNQTISTIREAVKQLWPDADLHVFGSYSTDLYLPGSDIDCVVTSELGGKESRNNLYSLASHLKKKNLATEVEVVAKARVPIIKFVEPHSGIHIDVSFERTNGIEAAKLIREWLDDTPGLRELVLIVKQFLHARRLNNVHTGGLGGFSIICLVFSFLHMHPRIITNEIDPKDNLGVLLIEFFELYGKNFGYDDVALGSSDGYPVYFPKSTWSAIQPIKNPFSLAIQDPGDESNNISRGSFNIRDIKKAFAGAFDLLTNRCFELHSATFKDRLGKSILGNVIKYRGKARDFKDERGLVLNKAIIENENYHKKRSRIIHDEDFAEDTVTSTATATTTDDDYEITNPPAKKAKIEEKPESEPAKRNSGETYITVSSEDDDEDGYNPYTL", "Protein AIR2": "MEKNTAPFVVDTAPTTPPDKLVAPSIEEVNSNPNELRALRGQGRYFGVSDDDKDAIKEAAPKCNNCSQRGHLKKDCPHIICSYCGATDDHYSRHCPKAIQCSKCDEVGHYRSQCPHKWKKVQCTLCKSKKHSKERCPSIWRAYILVDDNEKAKPKVLPFHTIYCYNCGGKGHFGDDCKEKRSSRVPNEDGSAFTGSNLSVELKQEYYRHMNRNSDENEDYQFSESIYDEDPLPRPSHKRHSQNDHSHSGRNKRRASNFHPPPYQKSNVIQPTIRGETLSLNNNISKNSRYQNTKVNVSSISENMYGSRYNPSTYVDNNSISNSSNYRNYNSYQPYRSGTLGKRR"}},
  "key": {"[1]": {"biological_target": "T1, Mtr4^WT (recombinant, pSJJ004) (S. cerevisiae, UniProt P47047 1-1073)", "T1 construct": "Mtr4, S. cerevisiae, full length; the His tag is TEV protease-cleavable; also called full-length recombinant Mtr4; recombinant Mtr4", "T1 sequence (looked up)": "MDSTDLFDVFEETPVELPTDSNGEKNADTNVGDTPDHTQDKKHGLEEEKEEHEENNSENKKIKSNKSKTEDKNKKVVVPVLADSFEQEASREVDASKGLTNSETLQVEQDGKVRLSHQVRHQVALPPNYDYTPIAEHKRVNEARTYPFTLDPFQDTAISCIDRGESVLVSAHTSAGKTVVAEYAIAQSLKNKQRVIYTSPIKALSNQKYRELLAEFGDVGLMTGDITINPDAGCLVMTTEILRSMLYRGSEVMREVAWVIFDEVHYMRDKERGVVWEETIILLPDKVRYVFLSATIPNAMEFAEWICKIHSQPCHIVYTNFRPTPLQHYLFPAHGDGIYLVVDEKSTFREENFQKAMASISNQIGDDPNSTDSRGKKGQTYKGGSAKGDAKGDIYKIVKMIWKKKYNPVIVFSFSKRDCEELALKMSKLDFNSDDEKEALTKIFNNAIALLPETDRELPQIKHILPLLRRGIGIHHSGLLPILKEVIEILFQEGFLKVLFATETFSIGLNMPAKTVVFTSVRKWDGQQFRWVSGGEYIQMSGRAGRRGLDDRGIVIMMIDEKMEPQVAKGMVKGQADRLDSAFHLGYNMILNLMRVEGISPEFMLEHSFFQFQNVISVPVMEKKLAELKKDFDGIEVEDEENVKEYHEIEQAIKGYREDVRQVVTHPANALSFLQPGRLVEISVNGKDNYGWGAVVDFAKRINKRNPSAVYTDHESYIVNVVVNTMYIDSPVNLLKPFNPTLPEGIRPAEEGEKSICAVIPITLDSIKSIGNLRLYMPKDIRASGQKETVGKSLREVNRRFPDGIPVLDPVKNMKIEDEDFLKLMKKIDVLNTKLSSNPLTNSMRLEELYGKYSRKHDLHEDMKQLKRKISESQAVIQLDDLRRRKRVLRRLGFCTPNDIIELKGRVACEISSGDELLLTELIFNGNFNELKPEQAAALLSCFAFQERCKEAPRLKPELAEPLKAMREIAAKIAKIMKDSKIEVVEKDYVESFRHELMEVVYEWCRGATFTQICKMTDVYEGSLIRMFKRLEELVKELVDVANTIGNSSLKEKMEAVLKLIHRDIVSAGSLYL", "experiment": "fluorescence polarisation; fluorescence anisotropy; fluorescein-Trf5 peptide held at 50 nM, increasing Mtr4; 50 mM HEPES pH 7.5, 140 mM NaCl, 12% glycerol; 30 min at 30°C, read at 30°C", "conditions": "both partners purified"}, "[2]": {"biological_target": "T1, Mtr4^WT (recombinant, pSJJ004)", "experiment": "fluorescence polarisation; fluorescence anisotropy; fluorescein-Air2 1-29 peptide held at 80 nM, titrated with Mtr4; 50 mM HEPES pH 7.5, 100 mM NaCl, 0.1 mg/ml bovine serum albumin, 12% glycerol; 25°C; apparent Kd", "conditions": "both partners purified"}, "[3]": {"test_system": "Mtr4-ΔN80", "conditions": "ITC, dimeric complex containing either one of the peptide motifs; cited from earlier work", "description": "While we were preparing this manuscript, Falk et al. independently identified similar Trf4 and Air2 regions that can directly interact with Mtr4 ([38]). […] The agreement is remarkable considering the difference in methods (isothermal titration calorimetry/ITC versus fluorescence anisotropy), Mtr4 construct (Mtr4-ΔN80 and Mtr4-ΔN74) and Trf/Air binding partner (dimeric protein complexes versus isolated peptid ..."}},
  "data": [
    {"molecule": "B1", "values": [
      {"measurement": "Kd", "setting": "[1]", "value": 10.7, "unit": "µM"}
    ]},
    {"molecule": "B2", "values": [
      {"measurement": "Kd", "setting": "[2]", "value": "~6.9", "unit": "µM"}
    ]},
    {"molecule": "B3", "values": [
      {"measurement": "affinity for Mtr4", "setting": "[3]", "value": "affinities very similar to those we determined"}
    ]}
  ]
}
